Results: PubChem BioAssay (Tox21)
Only a part is listed here, and it is no random draw. Inconclusive results are not listed. Active and inactive are the calls of the source. The call rests on the fitted dose curve; in most records, active means well fitted inhibition curve with a large enough effect in the signal ratio in the repeat runs (not every such curve was filed as active); inconclusive means weak or mixed curves, or effect the other way; inactive means no such curve, though single readings can be large or run the other way; the % refers to the signal ratio.

Chains of the proteins cited; added tags and fusions are not shown.
UniProt Q92731, whole entry, looked up: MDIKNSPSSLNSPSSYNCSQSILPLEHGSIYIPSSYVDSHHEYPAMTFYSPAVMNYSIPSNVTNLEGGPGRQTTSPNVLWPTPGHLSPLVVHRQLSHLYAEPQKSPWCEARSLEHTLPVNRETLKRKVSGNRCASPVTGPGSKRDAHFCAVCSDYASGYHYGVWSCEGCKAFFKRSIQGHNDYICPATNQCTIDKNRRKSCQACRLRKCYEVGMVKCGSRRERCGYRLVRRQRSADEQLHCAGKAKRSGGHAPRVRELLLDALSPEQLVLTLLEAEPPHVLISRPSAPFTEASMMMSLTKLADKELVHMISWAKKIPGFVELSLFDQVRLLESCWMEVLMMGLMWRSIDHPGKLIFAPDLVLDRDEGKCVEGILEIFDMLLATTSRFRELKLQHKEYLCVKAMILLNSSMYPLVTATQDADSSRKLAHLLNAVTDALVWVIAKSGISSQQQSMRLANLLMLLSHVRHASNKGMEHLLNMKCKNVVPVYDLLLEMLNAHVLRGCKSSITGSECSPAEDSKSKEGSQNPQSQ

target: Estrogen receptor beta (Homo sapiens) (UniProt Q92731); assay: qHTS assay to identify small molecule antagonists of the estrogen receptor beta (ER-beta) signaling pathway (AID 1259378); conditions: ER-beta-UAS-bla HEK293T, beta-lactamase FRET ratio, 16 h; activity, negative = inhibition: at the top concentration
Source text: National Center for Advancing Translational Sciences [NCATS]
NIH Chemical Genomics Center [NCGC]
U.S. Environmental Protection Agency [EPA]
National Institutes of Environmental Health Sciences [NIEHS]
National Toxicology Program [NTP]
U.S. Food and Drug Administration [FDA]
Estrogen receptor (ER), a nuclear hormone receptor, plays an important role in development, metabolic homeostasis and reproduction. Two subtypes of ER, ER-alpha and ER-beta, have similar expression patterns with some uniqueness in both types. Endocrine disrupting chemicals (EDCs) and their interactions with steroid hormone receptors like ER causes disruption of normal endocrine function. To identify the compounds that inhibit ER signaling, an ER-beta-UAS-bla GripTite cell line (Life Technologies, Madison, WI, USA) containing a beta-lactamase reporter gene under the control of an UAS response element was used to screen Tox21 10K compound library.
Tox21 Assay Protocol Summary:
ER-beta-UAS-bla HEK293T cells were dispensed at 2,000 cells/4 uL of assay medium containing 2% charcoal stripped FBS per well into black wall/clear-bottom 1536-well plates using a Multidrop Combi (ThermoFisher Scientific, Waltham, MA) dispenser. After the assay plates were incubated at a 37C and 5% CO2 for 6 hr, 23 nL of compounds dissolved in DMSO, positive controls or DMSO only was transferred to the assay plate by a Pintool station (Kalypsys, San Diego, CA), followed by addition of 1 uL (1nM as final concentration) of 17-beta-estradiol (E2) in assay medium using a BioRAPTR FRD (Flying Reagent Dispenser, Aurora Discovery, San Diego, CA). The plates were incubated at 37C and 5% CO2 for 16 hr. Then 1 uL of LiveBLAzerTM B/G FRET substrate was added using a Flying Reagent Dispenser, the plates were incubated at room temperature for 2 hours, and fluorescence intensity was measured by an Envision plate reader (PerkinElmer, Shelton, CT).
On the % scale 0 is the no-effect control and ±100 the full control effect; potency means the concentration at half of the fitted maximal effect.

Compound | activity, negative = inhibition | Potency
CC[C@]1(O)C[C@@H]2CN(CCc3c([nH]c4ccccc34)[C@@](C(=O)OC)(c3cc4c(cc3OC)N(C)[C@H]3[C@@](O)(C(=O)OC)[C@H](OC(C)=O)[C@]5(CC)C=CCN6CC[C@]43[C@@H]65)C2)C1 | inactive: 2.98% | –
N=C(N)N1CCc2ccccc2C1 | inactive: 6.74% [at 8.39 µM] | –
CCN[C@@H]1C[C@H](N)[C@@H](OC2OC(CN)=CCC2N)[C@H](O)[C@H]1O[C@H]1OC[C@](C)(O)[C@H](NC)[C@H]1O (stereo not given in full) | inactive: 15.4% [at 0.349 µM] | –
C=CC[N+]1([C@H]2C[C@H]3[C@@H]4CC[C@H]5C[C@H](OC(C)=O)[C@@H](N6CCCCC6)C[C@]5(C)[C@H]4CC[C@]3(C)[C@H]2OC(=O)CC)CCCCC1 | inactive: -4.63% | –
CC(=O)CCC(=O)O | – | inactive
CCCCCCCCCCCCCC[n+]1ccccc1 | – | active: 61.1 µM
CN1CCC[C@H]1c1cccnc1 | – | inactive
Nc1c(CC(=O)O)cccc1C(=O)c1ccc(Br)cc1 | inactive: -4.1% | –
NC[C@H]1O[C@H](O[C@H]2[C@H](O)[C@@H](O[C@H]3O[C@H](CO)[C@@H](O)[C@H](N)[C@H]3O)[C@H](N)C[C@@H]2N)[C@H](N)[C@@H](O)[C@@H]1O | inactive: 0.47% [at 19 µM] | –
CC[N+](CC)(CC)CCOC(=O)C(C1CCCC1)C1CCCC1 | inactive: -9% | –
CC(N=C(NC#N)Nc1ccncc1)C(C)(C)C (stereo not given) | inactive: -3.91% | –
Cc1ncc(COP(=O)(O)O)c(C=O)c1O | inactive: 25.9% | –
O=S1(=O)N=C(O)c2ccccc21 | inactive: 12.5% | –
CCCCCC(C)N (stereo not given) | inactive: -3.61% | –
CC(C)(C)NC(=O)[C@@H]1CN(Cc2cccnc2)CCN1C[C@@H](O)C[C@@H](Cc1ccccc1)C(=O)N[C@H]1c2ccccc2C[C@H]1O | – | inactive
Nc1c2c(nc3c1CCC3)CCCC2 | inactive: 4.43% | –
CC[N+]1(CC)CCC(=C(c2ccccc2)c2ccccc2)C1C (stereo not given) | inactive: -0.267% | –
C[N+]1(C)CCCC(OC(=O)C(O)(c2ccccc2)c2ccccc2)C1 (stereo not given) | inactive: 5.82% | –
CC(C)NNC(=O)c1ccncc1 | inactive: 3.59% | –
COC(=O)C(c1ccccc1Cl)N1CCc2sccc2C1 (stereo not given) | inactive: -25.7% | –

Compound | activity, negative = inhibition | Potency
Nc1cc(S(=O)(=O)O)cc2cc(S(=O)(=O)O)cc(O)c12 | – | inactive
CCCCCCCCCCCC[N+](C)(C)C | – | active: 34.4 µM
FB(F)F | inactive: 10.1% [at 92.4 µM] | –
CC1(C)[C@@H](O[C@H]2O[C@H](C(=O)O)[C@@H](O)[C@H](O)[C@H]2O[C@@H]2O[C@H](C(=O)O)[C@@H](O)[C@H](O)[C@H]2O)CC[C@]2(C)[C@H]3C(=O)C=C4[C@@H]5C[C@@](C)(C(=O)O)CC[C@]5(C)CC[C@@]4(C)[C@]3(C)CC[C@@H]12 | – | inactive
c1cnc2c(c1)ccc1cccnc12 | – | active: 0.692 µM
OC[C@H]1O[C@H](O[C@H]2O[C@H](CO)[C@@H](O)[C@H](O)[C@H]2O)[C@H](O)[C@@H](O)[C@@H]1O | inactive: -3.48% [at 92.4 µM] | –
NCCCC(N)(C(=O)O)C(F)F (stereo not given) | inactive: 2.43% | –
NC(=O)C(c1ccccc1)(c1ccccc1)[C@@H]1CCN(CCc2ccc3c(c2)CCO3)C1 | inactive: -22.8% | –
NC[C@H]1O[C@H](O[C@H]2[C@H](O[C@@H]3O[C@H](CO)[C@@H](O)[C@H]3O)C(O)[C@H](N)C[C@@H]2N)[C@H](N)[C@@H](O)[C@@H]1O (stereo not given in full) | inactive: 3.52% [at 8.39 µM] | –
CC(=O)O[C@H]1C[C@@H]2CC[C@@H]3[C@H](CC[C@@]4(C)[C@H]3C[C@H]([N+]3(C)CCCCC3)[C@@H]4OC(C)=O)[C@@]2(C)C[C@@H]1N1CCCCC1 | inactive: 11.3% | –
NC(CCC(=O)O)C(=O)O (stereo not given) | inactive: -8.2% [at 92.4 µM] | –
NCCCC(O)(P(=O)(O)O)P(=O)(O)O | inactive: 18.3% | –
[Cl][Eu]([Cl])[Cl] | inactive: 5.34% [at 92.4 µM] | –
C[N+]1(C)[C@@H]2CC(OC(=O)[C@H](CO)c3ccccc3)C[C@H]1[C@@H]1O[C@@H]12 (stereo not given in full) | inactive: -1.13% | –
CC[N+](C)(CC)CCOC(=O)C(O)(c1ccccc1)C1CCCCC1 (stereo not given) | inactive: 17.2% | –
CC(C(=O)O)c1cccc(Oc2ccccc2)c1 (stereo not given) | inactive: -2.67% | –
Cc1onc(-c2c(Cl)cccc2Cl)c1C(=O)N[C@@H]1C(=O)N2[C@@H]1SC(C)(C)[C@@H]2C(=O)O | inactive: 8.26% | –
O=S(=O)(O)c1ccccc1 | – | inactive
Cc1ccc(C(=O)c2ccc(CC(=O)O)n2C)cc1 | inactive: -20.8% | –
O=C1NS(=O)(=O)c2ccccc21 | – | inactive
